Data set [1] concerns Caco-2. The experiment in a line: Caco-2 cell permeability. The settings on record: No Inhibitor.
A short description of data set [2]: Partition coefficient octanol/PBS (LogD7.4). The data set is classed as physicochemical. Particulars: 100 μM in PBS shaken with octanol.
Data set [3] can be described thus: Water solubility of PBICs. The settings on record: MitoQ conjugate of the drug.

For the molecule `COC1=C(OC)C(=O)C(CCCCCCCCCC[P+](c2ccccc2)(c2ccccc2)c2ccccc2)=C(C)C1=O.O=C([O-])Cc1ccccc1Nc1c(Cl)cccc1Cl` [Diclofenac-MitoQ, Diclofenac-MitoQ conjugate], in data set [1], the “Mean (B-A/A-B) Efflux Ratio” value is reported as 0.0618, the “Mean Papp A-B” value was 34.7 10^−6 cm/s and the “Mean Papp B-A” value is 2.14 10^−6 cm/s. In data set [2], the “(Conc. in octanol)/(Conc. in PBS)” value is on record as 8.53 and the LogD7.4 is 0.93. In addition, in data set [3], the “Water solubility, MitoQ Conjugate” value was “insoluble”.

The record behind these values is patent publication US11541120B2, “Phosphonium-based ionic drug conjugates” (Anthos Partners, LP, priority 2017, dated 2023).
